Experimental findings from patent US20140213538A1, “LYSOPHOSPHATIDIC ACID RECEPTOR ANTAGONISTS” (InterMune, Inc., priority 2013, published 2014) are described below.

The chains behind the UniProt entries cited, without tags or fusion partners. Where a name states a change or a piece, a line headed by the entry shows the natural chain unless it says otherwise.
UniProt Q92633, whole entry: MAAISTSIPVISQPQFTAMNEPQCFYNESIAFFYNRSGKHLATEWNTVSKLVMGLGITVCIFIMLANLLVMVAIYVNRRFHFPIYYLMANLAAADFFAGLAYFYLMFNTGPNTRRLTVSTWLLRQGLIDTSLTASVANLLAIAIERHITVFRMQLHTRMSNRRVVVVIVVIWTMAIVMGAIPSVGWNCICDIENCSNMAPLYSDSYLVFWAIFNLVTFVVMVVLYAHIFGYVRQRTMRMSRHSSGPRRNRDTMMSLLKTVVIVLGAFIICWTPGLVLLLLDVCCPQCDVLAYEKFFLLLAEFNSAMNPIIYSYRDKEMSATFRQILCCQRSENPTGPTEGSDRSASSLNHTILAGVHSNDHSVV

SMILES strings stand for the structures.

One assay addresses LPA/S1P GPCR of interest (Homo sapiens, UniProt Q92633). As to the kind of experiment: Beta-Arrestin based assay (PathHunter). The note with it: read-out: Beta Arrestin EC50. As for the experimental part:
CMV promoter based DNA constructs expressing a fusion of the LPA/S1P GPCR of interest and ProLink™ tag were used to transfect EA Parental™ CHO cells (DiscoverX, Fremont, Calif.) using a FuGENE® transfection kit (Roche). Beta-Arrestin based assays were conducted 24-48 hrs post transfection using PathHunter® assay kits (DiscoverX, Fremont, Calif.). Agonist and antagonist assays were performed in quadruplicate in white 384 well plates. End point luminescence data were plotted and fit to a 4 parameter logistic function to obtain IC50 values. For antagonist assays, an IC80 concentration of agonist (LPA) equal to 0.5 micromolar was used.

Assay [1] has as its target T1, LPA1 (Homo sapiens, UniProt Q92633). As to the kind of experiment: LPA1 Migration Assay (Oris). It counts as cell-based. The note with it: read-out: Cell Migration EC50. The source says: LPA1 Migration Assay Migration of primary fibroblasts (including lung, dermal), HFL-1, 3T3 and CHO cells expressing LPA1R were monitored using the Oris™ assay (Platypus Technologies, Madison, Wis.). These cells were dye (Cell Tracker Green™) loaded and serum starved for 12-24 hrs. In response to chemoattractants such as LPA and serum, the cells migrated inward in to the exclusion (detection) zone. After fixing, fluorescent cells in the detection zone were counted using a high content reader. The ability of LPA1 antagonists to inhibit cell migration is quantified by plotting cell number vs. compound concentration and curve fitting the resulting dose-response curve to a 4 parameter logistic function.

The target in assay [2] is T1, LPA1. Kind of assay: Ca Flux LPA1 assay. The format is cell-based. Particulars: read-out: Ca Flux LPA1 IC50.

Broadly, the IC50 is the point on the concentration scale where inhibition reaches its midpoint. For the compound `Cc1nsc(-c2cc(F)c(-c3cc4sc(C5(C(=O)O)CC5)cc4s3)cc2F)c1NC(=O)O[C@H](C)c1ccccc1`, the EC50 was below 50 nM at LPA/S1P GPCR of interest and 50 to 500 nM on LPA1 [1]. At LPA1 [2], the IC50 was above 500 nM. For `C[C@@H](OC(=O)Nc1c(-c2ccc(-c3ccc(C4(C(=O)O)CC4)cc3)cc2)cnn1C(F)(F)F)c1ccccc1`, the EC50 on LPA1 [1] lay in the range of 50 to 500 nM. For the compound `Cc1nsc(-c2cc3sc(-c4ccc5c(CC(=O)O)c[nH]c5c4)cc3s2)c1NC(=O)O[C@H](C)c1ccccc1`, the EC50 at LPA/S1P GPCR of interest was above 500 nM. `C[C@@H](OC(=O)Nc1c(-c2ccc(-c3ccc(OC(C)(C)C(=O)O)c(F)c3)cc2)cnn1C)c1ccccc1`: the EC50 at LPA/S1P GPCR of interest and at LPA1 [1] was 50 to 500 nM throughout. On to `C[C@@H](OC(=O)Nc1c(-c2cc3sc(-c4ccc(CC(=O)O)c(F)c4F)cc3s2)cnn1C)c1ccccc1` [IT211], for which the EC50 on LPA/S1P GPCR of interest lay in the range of 50 to 500 nM.
